Our source for the Permeability values is publication PMC5554167, “Intestinal transepithelial permeability of oxytocin into the blood is dependent on the receptor for advanced glycation end products in mice” (Scientific Reports, 2017).

Like-named read-outs stand apart in the source and are kept apart here. Marks after values point to notes of the source that are not given here.

For this series the following is noted: 4-kDa FITC-dextran injected into mucosal side of isolated intestine, (fluorescence 3 min minus 0 min)/3 min, ex 485/em 538 nm, room temperature, mean ± SEM, N = 3.

Consider “fluorescein isothiocyanate (FITC)-dextran [FITC-dextran]”, for which the Permeability reads like this: (Ager-/- (RAGE KO) pups PND1) 13.4 ± 0.4^b units/min; (Ager-/- (RAGE KO) pups PND6) 16.9 ± 0.3^d units/min; (wild-type pups PND1) 13.0 ± 0.9^a units/min; (wild-type pups PND6) 17.1 ± 0.3^c units/min.
